Test results: patent US20120301493A1 (UNIVERSIDADE DE SANTIAGO DE COMPOSTELA, published 2012)

Molecular target: T1, human wild type p53 (human, UniProt P04637 1-393)
T1 construct: whole, on cells; also called untagged p53; Intercoil-free p53
Test: co-expression in Cos-7 cells, immunofluorescence (nuclear inclusions)

B1: NLS-Ag.T-muNS (muNS fused with the NLS of the SV40 T-antigen at its amino end) (other)
chain: PKKKRKVMASTKWGDKPMSVSMSHDGSSIRSAASQFLSGPLFHSTPIPPQRKTVLLKFMIGDELVTVQGALAPFDEYWYDNQPLLAQAVEMLASADRLRQFEHYEKFLLKKGHQITEIMNRLRLFFTDVLKVKMEADALPALAQYLMVGTLEAVSTADSPDACVPVTSKILAKQQTIAKSPGRLDEEEYNVIRSRFLTHEVFDLTSDLPGVQPFMDMYYATVPRADSTGWCVYRRKGLLIHAPDEQFSDLTIFSTRLTASRELQLVAGDVAVACFDLMDVSDIAPSHHASVQEERTLGTSRYSNVTANDHPLVFFSPSALRWAIDHACTDSLVSTRNIRVCVGIDPLVTRWTRDGVQEAAILMDDKLPSAGRARMALRTLLLARRSPMTSFLLGALKQSGGQLMEHYRCDAANRYGSPTVPVSHSPPCSKCPELKEQITKLSSSPLPKIDSNVGPAALLSKIADLQRANRELSLKLVDVQPAREDHLLAYLNEHVCVNAKDHEKGLLSRCNVSGDSISSILGQRVKNRERFETRLRHEASAEWEPRVEALNQELAKARVEQQDMMTQSLQYLNERDELLHEVDELKRELTTLRSANVRLNADNHRMSRATRVGDAFVSDVEPLPSGIPGESKPSMEELVDDL
B1: no binding.
